In article PMC9304032 (Proceedings of the National Academy of Sciences of the …, 2022):
pIC50: −log10 of the molar value.

Biological target: T1, glucocerebrosidase (GCase) (Homo sapiens, UniProt P04062)
T1 sequence (P04062 40-536): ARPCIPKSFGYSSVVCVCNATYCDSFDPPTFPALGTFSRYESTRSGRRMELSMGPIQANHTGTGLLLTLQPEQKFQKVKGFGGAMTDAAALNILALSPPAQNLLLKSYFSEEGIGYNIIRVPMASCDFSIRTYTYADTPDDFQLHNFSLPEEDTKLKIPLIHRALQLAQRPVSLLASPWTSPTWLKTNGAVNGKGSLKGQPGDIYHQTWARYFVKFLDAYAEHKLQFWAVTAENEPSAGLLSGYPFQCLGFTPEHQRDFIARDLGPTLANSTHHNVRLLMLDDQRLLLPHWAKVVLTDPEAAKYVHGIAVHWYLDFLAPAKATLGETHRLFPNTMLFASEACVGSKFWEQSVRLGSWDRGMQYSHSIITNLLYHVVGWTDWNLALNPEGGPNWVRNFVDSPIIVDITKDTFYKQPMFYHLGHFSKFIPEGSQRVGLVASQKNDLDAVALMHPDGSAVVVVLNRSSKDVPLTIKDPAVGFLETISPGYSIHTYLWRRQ
Experiment: live-cell target engagement, inhibition of LysoFQ-GBA turnover
Format: cell-based

pIC50: 6.77
Structure (SMILES): O[C@H]1[C@H](O)CNC[C@@H]1C(F)F [AT3375]
